For one compound, IC50, Ki and Kd results are on record in ChEMBL document CHEMBL3352558, “β-Keto and β-hydroxyphosphonate analogs of biotin-5'-AMP are inhibitors of holocarboxylase synthetase” (Bioorg Med Chem Lett, 2014).

Amino acid sequences for entries named in this document (tags omitted).
UniProt P06709, whole entry: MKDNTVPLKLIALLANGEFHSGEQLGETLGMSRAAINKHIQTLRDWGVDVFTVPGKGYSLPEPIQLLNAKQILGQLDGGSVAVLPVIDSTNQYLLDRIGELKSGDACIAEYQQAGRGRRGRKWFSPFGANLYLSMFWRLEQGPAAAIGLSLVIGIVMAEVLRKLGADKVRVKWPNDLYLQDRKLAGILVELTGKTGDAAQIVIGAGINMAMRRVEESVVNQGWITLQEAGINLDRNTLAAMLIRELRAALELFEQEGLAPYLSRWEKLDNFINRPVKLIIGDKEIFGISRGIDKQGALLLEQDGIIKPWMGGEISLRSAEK

The target in one assay is T1, Biotin--protein ligase (Homo sapiens, UniProt P50747).
T1 sequence (P50747 whole entry): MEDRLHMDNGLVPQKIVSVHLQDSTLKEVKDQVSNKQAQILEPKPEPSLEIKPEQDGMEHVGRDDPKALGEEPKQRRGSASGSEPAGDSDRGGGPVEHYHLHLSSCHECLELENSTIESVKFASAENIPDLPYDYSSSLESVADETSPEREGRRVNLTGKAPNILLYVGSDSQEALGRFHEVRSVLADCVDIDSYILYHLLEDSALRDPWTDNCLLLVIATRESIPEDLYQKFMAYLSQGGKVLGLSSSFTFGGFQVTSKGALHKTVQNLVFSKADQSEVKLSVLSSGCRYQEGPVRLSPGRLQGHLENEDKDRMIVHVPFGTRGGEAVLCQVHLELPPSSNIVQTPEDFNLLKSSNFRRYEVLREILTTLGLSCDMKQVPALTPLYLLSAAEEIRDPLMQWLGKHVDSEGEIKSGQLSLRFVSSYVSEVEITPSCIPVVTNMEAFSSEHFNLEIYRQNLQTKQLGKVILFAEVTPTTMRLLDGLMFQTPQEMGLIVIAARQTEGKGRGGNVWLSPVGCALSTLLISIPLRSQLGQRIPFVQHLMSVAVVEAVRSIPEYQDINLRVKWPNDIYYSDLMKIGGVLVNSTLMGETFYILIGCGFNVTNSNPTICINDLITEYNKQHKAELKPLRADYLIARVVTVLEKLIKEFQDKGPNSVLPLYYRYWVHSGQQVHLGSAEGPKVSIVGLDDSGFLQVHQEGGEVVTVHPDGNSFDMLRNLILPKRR
Kind of assay: Inhibition of human recombinant HLCS using P67 as substrate after 2 hrs relative to vehicle-treated control. An outline of the steps: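 Biotinylated p67 resolved on 16% Tricine gels, blotted, probed with anti-biotin and read by infrared imaging. IC50 from nonlinear One-site-Fit-logIC50; Ki derived from IC50; n=4, mean±SD.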

Assay [1] deals with Bifunctional ligase/repressor BirA (Escherichia coli (strain K12), UniProt P06709). The assay can be described thus: Binding affinity to Escherichia coli biotin protein ligase.

As to `Nc1ncnc2c1ncn2[C@@H]1O[C@H](COP(=O)(O)OCCCCC[C@@H]2SC[C@@H]3NC(=O)N[C@@H]32)[C@@H](O)[C@H]1O`, at Biotin--protein ligase, the concentration for half-maximal inhibition (IC50) (in general, the concentration that gives 50% inhibition) is 8.8 µM and the Ki (in general, a measure of affinity in units of concentration, obtained from inhibition or displacement) was 0.754 µM. Binding in assay [1] was characterised by a dissociation constant (Kd) of 0.0015 µM.
